Laboratory results taken from PubChem BioAssay AID1554 (Broad Institute, 2009).
Only a part is listed here, and it is no random draw. Some results for these compounds are left out of this collection, so the calls shown say nothing about other tests. Calls of active or inactive are those of the source. Rule as the data show it: active = inhibition above about 50%; inconclusive = no clear call, values can overlap the other calls; inactive = below that.

Assay: PubChem AID 1554
Conditions: BJeLR (HRASV12) viability, CellTiter-Glo ATP luminescence, 48 h; active compounds read high; concentration not given here
In the case of `O=C(OC1CN2CCC1CC2)C(CO)(c1ccccc1)c1ccccc1` (centres undefined), the inhibition was inactive: 2.17%.
In the case of `CN(C)c1cccc(C(=O)NCC2(N(C)C)CCCCC2)c1`, the inhibition was inactive: -4.01%.
In the case of `CC(C)Oc1ccc(C(=O)NCC2(N(C)C)CCCCC2)cc1`, the inhibition was inactive: -3.94%.
For `COc1ccc(Br)c(C(=O)NCC2(N3CCCCC3)CCCCC2)c1`, the inhibition was inactive: -9.07%.
For `COc1cc(C(=O)NCC2(N(C)C)CCCCC2)c([N+](=O)[O-])cc1OC`, the inhibition was inactive: 10%.
In the case of `CN(C)C1(CNC(=O)c2ccc(Br)cc2)CCCCC1`, the inhibition was inactive: -0.0676%.
For `O=C(NCC1(N2CCCCC2)CCCCC1)c1cccc(Cl)c1`, the inhibition was inactive: 4.66%.
In the case of `COc1cccc(C(=O)NCC2(N3CCCCC3)CCCCC2)c1`, the inhibition was inactive: -2.39%.
In the case of `COc1ccc(Cl)cc1C(=O)NCC1(N(C)C)CCCCC1`, the inhibition was inactive: -10.4%.
With `Cc1ccccc1C(=O)NCC1(N2CCCCC2)CCCCC1` the inhibition was inactive: -2.35%.
With `CN(C)c1ccc(C(=O)NCC2(N(C)C)CCCCC2)cc1` the inhibition was inactive: -3.23%.
In the case of `CN(C)C1CCCC1OC(=O)C(O)(c1ccccc1)c1ccccc1` (centres undefined), the inhibition was inactive: -17.4%.
In the case of `CCN1CCCC(OC(=O)C2(O)c3ccccc3C=Cc3ccccc32)C1` (centres undefined), the inhibition was inactive: 2.16%.
With `Cc1cc(C(=O)NCC2(N3CCCCC3)CCCCC2)ccc1[N+](=O)[O-]` the inhibition was inactive: 2.11%.
For `O=C(NCC1(N2CCCCC2)CCCCC1)c1cccc(Br)c1`, the inhibition was inactive: -2.44%.
With `COc1ccc(C(=O)NCC2(N(C)C)CCCCC2)cc1` the inhibition was inactive: -7.15%.
In the case of `C=CCN1CCN(CCOC(=O)C(O)(c2ccccc2)c2ccccc2)CC1`, the inhibition was inactive: 3.97%.
With `O=C(NCC1(N2CCCCC2)CCCCC1)c1cc(F)c(F)cc1Cl` the inhibition was inactive: 6.41%.
For `CN1[C@@H]2CC[C@H]1CC(OC(=O)C(O)(c1ccccc1)c1ccccc1)C2` (some centres undefined), the inhibition was inactive: -5.03%.
For `O=C(NCC1(N2CCCCC2)CCCCC1)c1cc([N+](=O)[O-])ccc1Cl`, the inhibition was inactive: 4.11%.
In the case of `Cc1ccc(C(=O)NCC2(N3CCCCC3)CCCCC2)cc1`, the inhibition was inactive: 5.35%.
In the case of `CC(C)N1C(=O)CC2(CCN(CCOC(=O)C(O)(c3ccccc3)c3ccccc3)CC2)C1=O`, the inhibition was inactive: -7.74%.
With `CCN(CC)CC(C)C(C)OC(=O)C(O)(c1ccccc1)c1ccccc1` (centres undefined) the inhibition was inactive: 5.61%.
In the case of `COc1cc(SC)ccc1C(=O)NCC1(N(C)C)CCCCC1`, the inhibition was inactive: -4.09%.
